Patent publication US11407721B2, “CIS-morpholinone and other compounds as MDM2 inhibitors for the treatment of cancer” (AMGEN INC., priority 2013, dated 2022)

Sequences of proteins named here, by UniProt entry; tags and fusion partners are left off. Residues count along the entry.
UniProt Q00987, 1-188 limits assumed: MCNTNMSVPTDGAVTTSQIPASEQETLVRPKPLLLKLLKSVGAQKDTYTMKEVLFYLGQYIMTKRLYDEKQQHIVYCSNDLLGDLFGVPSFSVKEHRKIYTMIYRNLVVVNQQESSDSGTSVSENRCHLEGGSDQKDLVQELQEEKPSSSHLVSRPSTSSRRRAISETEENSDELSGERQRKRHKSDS

Biological target: interaction between HDM2 and p53 (GST-hMDM2 (1-188) / biotinylated-p53 (1-83)) (Homo sapiens (Human), UniProt Q00987)
Test: HTRF2 Assay (improved HTRF assay)
Type: binding
Settings: read-out: HTRF2 IC50; 0.2 nM GST-hMDM2 (1-188), 0.5 nM biotinylated-p53 (1-83), 100 mM KF

| IC50 [µM] | SMILES |
| --- | --- |
| 0.633 | CCC[C@H](C(=O)NCC(C)(C)C(=O)O)N1C(=O)[C@H](Cc2ccc(C#N)cc2)O[C@@H](c2ccc(Cl)cc2)[C@H]1c1ccc(Cl)cc1 (relative stereo) |
| 3.05 | CCC[C@H](C(=O)NCCC(=O)O)N1C(=O)CO[C@@H](c2ccc(Cl)cc2)[C@H]1c1ccc(Cl)cc1 (relative stereo) |
| 5.04 | CCC[C@H](C(=O)O)N1C(=O)CO[C@@](C)(c2ccc(Cl)cc2)[C@H]1c1ccc(Cl)cc1 (relative stereo) |
| 3.75 | CCC[C@H](C(=O)O)N1C(=O)[C@@H](Cc2ccc(S(C)(=O)=O)cc2)O[C@H](c2ccc(Cl)cc2)[C@@H]1c1ccc(Cl)cc1 (relative stereo) |
| 1.44 | CCC[C@H](C(=O)O)N1C(=O)[C@H](Cc2ccc(-c3ccccc3)cc2)O[C@@H](c2ccc(Cl)cc2)[C@H]1c1ccc(Cl)cc1 (relative stereo) |
| 0.816 | CCC[C@H](C(=O)O)N1C(=O)[C@H](Cc2ccc(C(N)=O)cc2)O[C@@H](c2ccc(Cl)cc2)[C@H]1c1ccc(Cl)cc1 (relative stereo) |
| 2.12 | CCC[C@H](CN1CCC(C(=O)O)CC1)N1C(=O)[C@H](Cc2ccc(F)cc2)O[C@@H](c2ccc(Cl)cc2)[C@H]1c1ccc(Cl)cc1 (relative stereo) |
| 5.5 | CCC[C@H](CNC(=O)CC(=O)O)N1C(=O)CO[C@@H](c2ccc(Cl)cc2)[C@H]1c1ccc(Cl)cc1 (relative stereo) |
| 6.3 | CN1C(=O)[C@@H](Cc2ccc(C#N)c(F)c2)O[C@H](c2ccc(Cl)cc2)[C@@H]1c1ccc(Cl)cc1 (relative stereo) |
| 12.7 | CN1C(=O)[C@@H](Cc2ccc(CN)cc2)O[C@H](c2ccc(Cl)cc2)[C@@H]1c1ccc(Cl)cc1 (relative stereo) |
| 4.33 | CN1C(=O)[C@@H](Cc2ccc(S(C)(=O)=O)cc2)O[C@H](c2ccc(Cl)cc2)[C@@H]1c1ccc(Cl)cc1 (relative stereo) |
| 6.14 | COC(=O)c1ccc(C[C@H]2O[C@H](c3ccc(Cl)cc3)[C@H](c3ccc(Cl)cc3)N(C)C2=O)cc1 (relative stereo) |
| 27.1 | COCCN1C(=O)CO[C@@H](c2cccc(Cl)c2)[C@H]1c1ccc(Cl)cc1 (relative stereo) |
| 7.9 | Cn1cnc(N2C(=O)[C@@H](Cc3ccc(F)cc3)O[C@H](c3ccc(Cl)cc3)[C@@H]2c2ccc(Cl)cc2)c1 (relative stereo) |
| 16.1 | N#CC1(CN2C(=O)[C@@H](CC(=O)O)O[C@H](c3cccc(Cl)c3)[C@@H]2c2ccc(Cl)cc2)CC1 (relative stereo) |
| 4.22 | O=C(O)C[C@H]1O[C@H](c2ccc(F)c(Cl)c2)[C@H](c2ccc(Cl)cc2)N(CC2CC2)C1=O (relative stereo) |
| 26.6 | O=C(O)[C@@H](c1ccccc1)N1C(=O)CO[C@@H](c2ccc(Cl)cc2)[C@H]1c1ccc(Cl)cc1 (relative stereo) |
| 13.7 | O=C1CO[C@@H](c2cccc(Cl)c2)[C@@H](c2ccc(Cl)cc2)N1Cc1cscn1 (relative stereo) |
| 7.9 | O=C1CO[C@@H](c2cccc(Cl)c2)[C@@H](c2ccc(Cl)cc2)N1S(=O)(=O)C1CC1 (relative stereo) |

The remaining lines, values behind:

| SMILES | IC50 [µM] |
| --- | --- |
| CC(C)(O)CN1C(=O)CO[C@@H](c2cccc(Cl)c2)[C@H]1c1ccc(Cl)cc1 (relative stereo) | 14.5 |
| CC(C)CN1C(=O)CO[C@@H](c2cccc(Cl)c2)[C@H]1c1ccc(Cl)cc1 (relative stereo) | 8.75 |
| CCC[C@@H](C(=O)N1CCN(CC2CC2)CC1)N1C(=O)[C@@H](Cc2ccc(C#N)cc2)O[C@H](c2ccc(Cl)cc2)[C@@H]1c1ccc(Cl)cc1 (relative stereo) | 1.38 |
| CCC[C@@H](C(=O)N1CCN(CC2CC2)CC1)N1C(=O)[C@@H](Cc2ccc(I)cc2)O[C@H](c2ccc(Cl)cc2)[C@@H]1c1ccc(Cl)cc1 (relative stereo) | 1.53 |
| CCC[C@@H](N1C(=O)CO[C@@H](c2ccc(Cl)cc2)[C@H]1c1ccc(Cl)cc1)C(C)(C)O (relative stereo) | 12.6 |
| CCC[C@@H]1CN=C2CO[C@@H](c3ccc(Cl)cc3)[C@@H](c3ccc(Cl)cc3)N21 (relative stereo) | 11 |
| CCC[C@@H]1CN=C2CO[C@H](c3ccc(Cl)cc3)[C@H](c3ccc(Cl)cc3)N21 (relative stereo) | 39.9 |
| CCC[C@H](C(=O)N(C)CC(=O)O)N1C(=O)[C@H](Cc2ccc(F)cc2)O[C@@H](c2ccc(Cl)cc2)[C@H]1c1ccc(Cl)cc1 (relative stereo) | 6.15 |
| CCC[C@H](C(=O)N(C)CCC(=O)O)N1C(=O)[C@H](Cc2ccc(F)cc2)O[C@@H](c2ccc(Cl)cc2)[C@H]1c1ccc(Cl)cc1 (relative stereo) | 0.498 |
| CCC[C@H](C(=O)N1CC(C(=O)O)C1)N1C(=O)[C@H](Cc2ccc(C#N)cc2)O[C@@H](c2ccc(Cl)cc2)[C@H]1c1ccc(Cl)cc1 (relative stereo) | 0.479 |
| CCC[C@H](C(=O)N1CCC(C(=O)O)CC1)N1C(=O)CO[C@@H](c2ccc(Cl)cc2)[C@H]1c1ccc(Cl)cc1 (relative stereo) | 3.36 |
| CCC[C@H](C(=O)N1CCC(C(=O)O)CC1)N1C(=O)[C@H](Cc2ccc(I)cc2)O[C@@H](c2ccc(Cl)cc2)[C@H]1c1ccc(Cl)cc1 (relative stereo) | 0.892 |
| CCC[C@H](C(=O)N1CCN(CC(=O)O)CC1)N1C(=O)CO[C@@H](c2ccc(Cl)cc2)[C@H]1c1ccc(Cl)cc1 (relative stereo) | 4.82 |
| CCC[C@H](C(=O)N1CCN(CC(=O)O)CC1)N1C(=O)[C@H](Cc2ccc(C#N)cc2)O[C@@H](c2ccc(Cl)cc2)[C@H]1c1ccc(Cl)cc1 (relative stereo) | 0.674 |
| CCC[C@H](C(=O)NCC1(C(=O)O)CCCC1)N1C(=O)[C@H](Cc2ccc(C#N)cc2)O[C@@H](c2ccc(Cl)cc2)[C@H]1c1ccc(Cl)cc1 (relative stereo) | 0.646 |
| CCC[C@H](C(=O)NO)N1C(=O)[C@H](Cc2ccc(I)cc2)O[C@@H](c2ccc(Cl)cc2)[C@H]1c1ccc(Cl)cc1 (relative stereo) | 1.66 |
| CCC[C@H](C(=O)NS(C)(=O)=O)N1C(=O)[C@H](Cc2ccc(C#N)cc2)O[C@@H](c2ccc(Cl)cc2)[C@H]1c1ccc(Cl)cc1 (relative stereo) | 0.305 |
| CCC[C@H](C(=O)O)N1C(=O)CO[C@@H](c2cccc(Cl)c2)[C@H]1c1ccc(Cl)cc1 (relative stereo) | 7.81 |
| CCC[C@H](C(=O)O)N1C(=O)CO[C@@](C)(c2cccc(Cl)c2)[C@H]1c1ccc(Cl)cc1 (relative stereo) | 20 |
| CCC[C@H](C(=O)O)N1C(=O)CO[C@H](c2ccc(Cl)cc2)[C@@H]1c1cc2ccccc2[nH]1 (relative stereo) | 5.9 |
| CCC[C@H](C(=O)O)N1C(=O)CO[C@H](c2cccc(Cl)c2)[C@@H]1c1ccc(Cl)cc1 (relative stereo) | 16.8 |

| SMILES | IC50 [µM] |
| --- | --- |
| CCC[C@H](C(=O)O)N1C(=O)CO[C@](C)(c2ccc(Cl)cc2)[C@@H]1c1ccc(Cl)cc1 (relative stereo) | 16.1 |
| CCC[C@H](C(=O)O)N1C(=O)[C@@H](Cc2ccc(S(C)(=O)=O)cc2F)O[C@H](c2ccc(Cl)cc2)[C@@H]1c1ccc(Cl)cc1 (relative stereo) | 29.6 |
| CCC[C@H](C(=O)O)N1C(=O)[C@H](Cc2ccc(Cl)cc2)O[C@@H](c2ccc(Cl)cc2)[C@H]1c1ccc(Cl)cc1 (relative stereo) | 1.26 |
| CCC[C@H](C(=O)O)N1C(=O)[C@H](Cc2ccc(F)cc2)O[C@@H](c2ccc(Cl)c(Cl)c2)[C@H]1c1ccc(Cl)cc1 (relative stereo) | 3.69 |
| CCC[C@H](C(=O)O)N1C(=O)[C@H](Cc2ccc(I)cc2)O[C@@H](c2ccc(Cl)cc2)[C@H]1c1ccc(Cl)cc1 (relative stereo) | 0.789 |
| CCC[C@H](C(=O)OCC)N1C(=O)[C@H](Cc2ccc(C#N)cc2F)O[C@@H](c2ccc(Cl)cc2)[C@H]1c1ccc(Cl)cc1 (relative stereo) | 17.4 |
| CCC[C@H](CNC(=O)CC(=O)O)N1C(=O)[C@H](Cc2ccc(I)cc2)O[C@@H](c2ccc(Cl)cc2)[C@H]1c1ccc(Cl)cc1 (relative stereo) | 18.4 |
| CCC[C@H](CNC(=O)Cc1nnn[nH]1)N1C(=O)CO[C@@H](c2ccc(Cl)cc2)[C@H]1c1ccc(Cl)cc1 (relative stereo) | 10.9 |
| CCC[C@H](CNCC(=O)O)N1C(=O)CO[C@@H](c2ccc(Cl)cc2)[C@H]1c1ccc(Cl)cc1 (relative stereo) | 7.12 |
| CN(C)Cc1ccc(C[C@H]2O[C@H](c3ccc(Cl)cc3)[C@H](c3ccc(Cl)cc3)N(C)C2=O)cc1 (relative stereo) | 17.5 |
| CN1C(=O)[C@@H](Cc2ccc(C#N)cc2)O[C@H](c2ccc(Cl)cc2)[C@@H]1c1ccc(Cl)cc1 (relative stereo) | 6.3 |
| CN1C(=O)[C@@H](Cc2ccc(C(=O)O)cc2)O[C@H](c2ccc(Cl)cc2)[C@@H]1c1ccc(Cl)cc1 (relative stereo) | 7.99 |
| CSc1nccc(N2C(=O)CO[C@@H](c3ccc(Cl)cc3)[C@H]2c2ccc(Cl)cc2)n1 (relative stereo) | 5 |
| C[C@]1(c2cccc(Cl)c2)O[C@H](CC(=O)O)C(=O)N(CC2CC2)[C@H]1c1ccc(Cl)cc1 (relative stereo) | 35.9 |
| Cc1nnc(C[C@H]2O[C@H](c3cccc(Cl)c3)[C@H](c3ccc(Cl)cc3)N(CC3CC3)C2=O)o1 (relative stereo) | 4.96 |
| O=C(O)C[C@H]1O[C@H](c2cccc(Cl)c2)[C@H](c2ccc(Cl)cc2)N(C(=O)C2CC2)C1=O (relative stereo) | 10.8 |
| O=C(O)[C@@H](C1CC1)N1C(=O)CO[C@@H](c2cccc(Cl)c2)[C@H]1c1ccc(Cl)cc1 (relative stereo) | 28.9 |
| O=C(O)[C@@H](C1CC1)N1C(=O)CO[C@H](c2cccc(Cl)c2)[C@@H]1c1ccc(Cl)cc1 (relative stereo) | 16.9 |
| O=C(O)[C@@H](C1CC1)N1C(=O)[C@H](Cc2ccc(F)cc2)O[C@@H](c2cccc(Cl)c2)[C@H]1c1ccc(Cl)cc1 (relative stereo) | 7.85 |
| O=C1CO[C@@H](c2cccc(Cl)c2)[C@@H](c2ccc(Cl)cc2)N1CC1CCC1 (relative stereo) | 6.25 |
| O=C1[C@@H](Cc2ccc(F)cc2)O[C@@H](c2ccc(Cl)cc2)[C@@H](c2ccc(Cl)cc2)N1c1cccnc1 (relative stereo) | 79 |
